Screens from PubChem.
Rows were chosen to be rich in hits. Some 3.7% of all compounds tested hit in one or more screens of this group.
IL2 activator = activates IL-2 in a cell-based reporter assay; actives 0.065% (n = 360,000); activation, % (series mostly up to about 46 µM); IL-2 activation reporter assay, cell-based qHTS; stimulated with anti-CD3/CD4/CD28 beads; in transgenic mouse T cells; in the data active = activation above about 50%; inconclusive = mostly about 30% to 49%; also: 0% is about no effect
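Unstimulated transgenic mouse T cells, 750 per well, received compound and, after 60 minutes, anti-CD3/anti-CD4 bead plus anti-CD28 stimulation. EGFP and DsRed were quantified after 18 hours.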
ClpP mod = qHTS Assay for Activators of ClpP | Potency, µM (top dose mostly 57.5 µM), for inactives: top-dose activity change, negative = active | actives 1.9% (n = 340,000) | ATP-dependent Clp protease proteolytic subunit (Bacillus subtilis (strain 168)), P80244 | purified B. subtilis ClpP, FRET peptide cleavage, 20 min; active = well fitted falling curve with a large enough effect; inconclusive = small, poorly fitted or top-dose-only effect; inactive = no such curve, though single readings can be large or run the other way; also: potency is read from the fitted curve at half-maximal effect; the source files actives as falling curves though it sought activators and does not explain the sign; nearly all actives have a fitted effect of over 65% in size
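FRET quenching reversal measured ClpP activation: 10 microg/mL B. subtilis ClpP at pH 8 with the FRET-FV decapeptide, read at 430 nm after 320 nm excitation. The 20-min minus 0-min signal was scaled between DMSO/no-enzyme wells and ADEP (5.8 microM final).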
Nrf2 block = blocks Nrf2 signaling. AID 504444. actives 2.1% (n = 360,000). Potency, µM (highest dose often 46 µM), for the others: top-dose activity change, negative = inhibition, actives largely listed as inhibitors. A549 ARE-Fluc reporter, luciferase luminescence, 18-24 h; also: potency is read from the fitted curve at half-maximal effect; % is scaled to controls: 0 for no effect and ±100 for the full control effect; nearly all actives have a fitted effect of over 60% in size
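A549 ARE_Fluc cells (5000/well, 5% FBS OPTI-MEM) pre-incubated 2 h, then treated with compounds 18-24 h at 37C/5% CO2 in concentration-response. CellTiter-Fluor viability read first; BugLite luciferase luminescence after 15 min at room temperature gives Nrf2 activity.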
miR-21 FLuc = miR-21 reporter, rising signal; 340,000 tested, under 10 active; Potency, µM (highest dose often 38.3 µM), for the others: top-dose reporter change, positive = more light; HeLa miR-21 FLuc reporter, luciferase, 48 h; active = well fitted rising curve with a large enough effect; inconclusive = small, poorly fitted or top-dose-only effect; inactive = no such curve, though single readings can be large or run the other way;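 further: % of control where 0% means no effect; miR-21 action dims this reporter so a rising signal means less miR-21 action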
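HeLa cells endogenously expressing miR-21, stably carrying CMV-driven firefly luciferase with a downstream miR-21 binding site, 2000 cells/well. Titrations up to approximately 40 uM, 48 hours; luciferase luminescence read.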
A549 tox-1 = A549 cytotoxicity, counter-screen for Nrf2 inhibitors | A549 ARE-Fluc cells, CellTiter-Fluor viability, 18-24 h | Potency, µM (titrated, usually from 46 µM), inactives show at the top dose activity change, negative = cytotoxicity, hits mostly inhibitors | actives 0.16% (n = 390,000); also: potency is read from the fitted curve at half-maximal effect; % is scaled to controls: 0 for no effect and ±100 for the full control effect
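A549 ARE-Fluc cells in 5% FBS OPTI-MEM, 5000 cells/well, rested 2 h then exposed to compounds in concentration-response for 18-24 h at 37 °C. Viability by CellTiter-Fluor fluorescence (Ex 405/Em 525) after 30 min; luciferase luminescence (BugLite, 15 min, RT) read afterwards.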
Nrf2 ARE act = activators of Nrf2 (ARE) signaling; actives 0.31% (n = 410,000); AREc32 ARE-luciferase reporter (MCF7-derived line), luminescence, 24 h; Potency, µM (doses to about 46.1 µM), for inactives: top-dose activation, actives largely listed as activators; AID 624171; also: potency is read from the fitted curve at half-maximal effect; % of control where 0% means no effect; nearly all actives have a fitted effect of over 65% in size
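Luminescent ARE reporter assay in AREc32_Fluc cells: overnight plating at 37 deg C, 24 hr compound incubation, Steady-Glo added, 30 min RT before reading.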
FLuc counter 3 = counter-screen for Nrf2 inhibitors: firefly luciferase enzyme inhibition; shares compounds with Nrf2 block; purified firefly luciferase, luminescence inhibition; Potency, µM (titrated, usually from 57.5 µM), inactives show at the top dose activity change, negative = inhibition, most hits filed as inhibitors; actives 4% (n = 1,400); AID 720522; also: potency is read from the fitted curve at half-maximal effect; % is scaled to controls: 0 for no effect and ±100 for the full control effect; nearly all actives have a fitted effect of over 65% in size
A549 tox-2 = A549 cytotoxicity, Nrf2 inhibitor counterscreen; shares compounds with Nrf2 block; AID 720523; Potency, µM (titrated, usually from 46.1 µM), for inactives: at the highest dose activity change, negative = cytotoxicity, usual class: inhibitors; A549 ARE-Fluc cells, cytotoxicity counterscreen; actives 2% (n = 1,400);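 also: potency is read from the fitted curve at half-maximal effect; cells exposed to compounds for 18 to 24 hours; % is scaled to controls: 0 for no effect and ±100 for the full control effect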
ARE-Fluc inh = confirmation of Nrf2 inhibitors in A549 ARE reporter cells; A549 ARE-firefly luciferase reporter, luminescence; AID 720524; shares compounds with Nrf2 block; Potency, µM (top dose mostly 46.1 µM), without a hit: top-dose activity change, negative = inhibition, actives largely listed as inhibitors; actives 74% (n = 1,400); also: potency is read from the fitted curve at half-maximal effect; % is scaled to controls: 0 for no effect and ±100 for the full control effect; nearly all actives have a fitted effect of over 65% in size
An asterisk follows results filed as active; ? = inconclusive; nt = no result given. Unless noted, calls follow the shape of the dose curve; as a rule, active = well fitted curve in the direction sought with a large enough effect; inconclusive = small, poorly fitted or top-dose-only effect, or another doubt; inactive = no such curve, though single readings can be large; an effect the other way counts as inactive or inconclusive.

Below each SMILES: ARE-Fluc inh	IL2 activator	miR-21 FLuc	Nrf2 block	Nrf2 ARE act	A549 tox-2	FLuc counter 3	A549 tox-1	ClpP mod
COC(=O)C(CCSC)NC(=O)c1cc2c(n(-c3ccc(C)cc3)c1=O)CC(C)(C)CC2=O (stereo unspecified)
→ nt	nt	-2%	-21%	0%	nt	nt	10%	3%
COc1cccc(C2CC(=O)Nc3c2c(=O)n(C)c2ncnn32)c1OC (stereo unspecified)
→ nt	nt	-12%	-18%	-3%	nt	nt	-12%	-4%
CCS(=O)(=O)N1CCCC(C(=O)c2ccc(OC)cc2C)C1 (stereo unspecified)
→ nt	1	-2%	-14%	-1%	nt	nt	-9%	1%
CCOC(=O)C1CCCN(S(=O)(=O)c2ccc(S(=O)(=O)N3CCCC3)cc2)C1 (stereo unspecified)
→ ?	-3	nt	8.2µM*	-1%	-3%	3%	-15%	0%
COc1ccc(C(=O)C2CCCN(S(=O)(=O)c3ccc(C(C)=O)cc3)C2)c(C)c1 (stereo unspecified)
→ nt	-4	25%	8.2µM*	0%	-2%	5%	-14%	1%
CCOc1ccc(NC(=O)c2c(C)oc3nc(C)nc(N4CCOCC4)c23)cc1
→ nt	nt	-11%	?	0%	nt	nt	1%	4%
CC(Oc1ccccc1)C(=O)N[C@@H]1C(=O)N2C(C(=O)O)C(C)(C)S[C@H]12 (stereo partly specified)
→ nt	nt	nt	nt	nt	nt	nt	nt	0%
CN(C(=O)c1cc2c(s1)-c1ccc(Cl)cc1SC2)c1cccc(C(F)(F)F)c1
→ nt	nt	-13%	?	-1%	nt	nt	-1%	-28%
COc1ccc(S(=O)(=O)c2nnn(-c3ccc(C(C)C)cc3)c2C)cc1
→ 5.2µM*	nt	8%	9.2µM*	0%	-1%	-1%	-20%	-1%
C/C(=N/NC(=O)c1cc(-c2cccc([N+](=O)[O-])c2)n[nH]1)c1cccc(O)c1
→ nt	1	-2%	-41%	1%	nt	nt	0%	-3%
C/C(=N\NC(=O)c1cc(-c2cccc([N+](=O)[O-])c2)n[nH]1)c1ccccc1O
→ ?	1	4%	9.2µM*	-1%	-3%	-14%	?	-11%
Cc1cc(C)c(OCC(=O)N(Cc2ccc(N(C)C)cc2)CC2CCCO2)c(C)c1 (stereo unspecified)
→ nt	nt	22%	?	1%	nt	nt	-3%	1%
CCOc1ccccc1N(C)C(=O)c1cc(S(=O)(=O)NCCc2ccc(Cl)cc2)ccc1F
→ nt	nt	24%	nt	-1%	nt	nt	-30%	-1%
Cn1c(-c2ccccc2)cccc1=O
→ nt	1	-5%	nt	1%	nt	nt	-1%	-1%
Cn1c(-c2ccccc2)c[n+]2c1-c1ccccc1C2
→ 1.6µM*	2	-1%	?	0%	-9%	-10%	7%	4%
COc1cccc(/C=N/n2c(N)c(S(=O)(=O)c3cccs3)c3nc4ccccc4nc32)c1OC
→ nt	-3	2%	3.7µM*	0%	-13%	-1%	?	2.8µM*
